Bioassay records as filed in PubChem BioAssay.
MC4R barr agon: agonists of human melanocortin 4 receptor (MC4R) beta-arrestin; P32245; U2OS MC4R beta-arrestin complementation, luminescence; percent of melanotan II response, DMSO zero; activation, % at 8.9 µM; hit rate 0.98% among 360,000; AID 540308;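 active means activation above a per-plate cutoff, the mean activation of sample wells on that plate plus 3 SD, cut at about 8% in these data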
Yeast UUG start: alters start codon recognition fidelity in yeast. S. cerevisiae UUG-firefly luciferase reporter, luminescence/redox ratio. AID 602363. activity score, % at 18.7 µM. hit rate 0.13% among 350,000;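 active = replicate mean at a twofold rise or more, about +100% in these data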;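 note: firefly luciferase made from a UUG start codon reports start codon fidelity; reporter light over untreated wells divided by growth signal over untreated wells; some hits fall short of that in this replicate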
ASAP1 GAP inh: blocks human ASAP1-stimulated Arf1 GTP hydrolysis; Q9ULH1; inhibition, % at 16.5 µM; AID 624377; hit rate 0.19% among 360,000; GDP FP detection; in the data active means inhibition above about 25%;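 further: 0% = vehicle with enzyme and substrate and 100% = no enzyme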
ARFGAP1 inhibitor: inhibits rat ARF GTPase activating protein 1 | Q62848 | Arfgap1-stimulated ARF1 GTP hydrolysis, GDP FP detection | inhibition, % at 16.5 µM | hit rate 0.26% among 360,000;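 active means inhibition above a per-plate limit, mean inhibition of low control wells plus 3 SD, cut at about 25% in these data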;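 further: 0% = DMSO wells with enzyme and 100% = wells lacking Arfgap1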
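Material – truncated rat Arfgap1 GAP domain · Buffer or medium – HEPES-based buffer, pH 7.5 · Reagent – human ARF1(Δ1-17)-GTP substrate · Dosing – 16.5 µM single point, 1.26% DMSO · Schedule – GTP hydrolysis reaction 2 h at 25 °C · Technique – GDP detection by fluorescence polarization · Benchmarks – No-Arfgap1 wells (100%) versus DMSO full-reaction wells (0%) · Repeats – single replicate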
CendR NRP1 mod: modulators of CendR peptide binding to human neuropilin-1; AID 602438; hit rate 0.85% among 360,000; inhibition, % at 25 µM; O14786; FAM-RPARPAR peptide binding to NRP-1, fluorescence polarization;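 active means inhibition or corrected inhibition above about 18%, plus a signal ratio from 0.5 to 1.5, limit read from the data, passing the limit was not always enough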
MC4R antag cAMP: human MC4R antagonism in cAMP assay; P32245; MC4R-expressing cells, MTII-stimulated cAMP, LANCE TR-FRET; inhibition, % at 6.5 µM; hit rate 0.48% among 360,000;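 active means inhibition above its plate's cutoff, the mean of tested wells on that plate plus 3 SD, cut at about 29% in these data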;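 further: 0% = Melanotan II alone and 100% = Melanotan II plus saturating MCL0020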
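System – human MC4R-expressing U2OS cells · Also added – Melanotan II · Dosing – one concentration, 6.5 µM nominal · Timing – 30-min compound, 1-h challenge, 1-h detection, room temperature · Measured by – Eu-cAMP/anti-cAMP TR-FRET, emission 671 nm · Replicates – singlicate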
U2OS cAMP counter: U2OS forskolin cAMP inhibition counter-screen | shares compounds with MC4R antag cAMP | parental U2OS, LANCE TR-FRET | inhibition, % at 6.5 µM | hit rate 26% among 1,600;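 active means mean inhibition over triplicates above the low-control well mean plus 3 SD, set per campaign, cut at about 13% in these data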;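 further: signal is single emission at 671 nm which falls as cellular cAMP rises; 0% = forskolin-stimulated wells and 100% = buffer without forskolin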
MC4R cAMP antag: human MC4R cAMP antagonism confirmation. shares compounds with MC4R antag cAMP. MC4R-expressing cells, MTII-stimulated cAMP, TR-FRET. inhibition, % at 6.5 µM. hit rate 27% among 1,600; in the data active means inhibition above about 29%;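 further: 0% = agonist stimulated wells alone and 100% = agonist stimulated wells plus saturating reference antagonist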
* marks the source's active call; other numbers are inactive results; . = not tested or not shown. In the library only some 2.3% were active in any assay of this set; here they are far more common.

#	Structure	MC4R barr agon	Yeast UUG start	ASAP1 GAP inh	ARFGAP1 inhibitor	CendR NRP1 mod	MC4R antag cAMP	U2OS cAMP counter	MC4R cAMP antag
1	S=c1[nH]ncn2c1cc1oc3ccccc3c12	-2	-17	-1	-10	-9	34*	22*	41*
2	Cc1c(C(=O)N/N=C/c2cccc(O)c2)nnn1-c1nonc1N	-4	-8	9	2	-2	13	.	.
3	CCCOc1ccc(-c2c(C(=O)N/N=C/c3ccccc3)nnn2-c2nonc2N)cc1	0	.	1	0	2	30*	6	10
4	Cc1ccccc1COc1cccc(/C=N/NC(=O)c2nnn(-c3nonc3N)c2C)c1	4	-20	0	-4	-8	32*	3	9
5	O=C(NCCc1csc(-c2ccccc2)n1)c1c(F)cccc1Cl	-2	.	3	-13	-5	31*	-2	0
6	COc1cc(-c2cc(NC(C)=O)c3ncc(-c4ccc(C(C)=O)cc4)n3c2)cc(OC)c1OC	8.7*	-16	15	-5	-6	29*	1	12
7	O=C(Nc1ccc(F)cc1)c1nc(S(=O)(=O)Cc2ccccc2)ncc1Cl	-4	-25	6	-6	1	8	.	.
8	CCN(c1ccccc1)S(=O)(=O)c1ccc(NC(=O)c2nc(S(C)(=O)=O)ncc2Cl)cc1	-3	6	.	.	4	60*	24*	46*
9	CS(=O)(=O)c1ncc(Cl)c(C(=O)Nc2ccc(OC(F)F)cc2)n1	-2	-8	.	.	-4	12	.	.
10	CCS(=O)(=O)c1ncc(Cl)c(C(=O)Nc2ccc(S(=O)(=O)N(C)c3ccccc3)cc2)n1	-5	-4	4	11	-6	52*	4	36*
11	Cc1ccccc1CS(=O)(=O)c1ncc(Cl)c(C(=O)Nc2ccc(F)cc2)n1	-3	-16	4	-5	11	42*	29*	26
12	Cc1ccc(NC(=O)c2nc(S(=O)(=O)Cc3ccccc3)ncc2Cl)cc1	-4	-15	-1	-13	1	11	.	.
13	CCCN1C[C@@H](C)[C@H](OC)CN(C)C(=O)c2ccc(NC(=O)Nc3ccccc3F)cc2OC[C@@H]1C	.	-9	.	.	.	.	.	.
14	CCOCC(=O)Nc1ccccc1C(=O)O	-1	-14	8	13	1	30*	1	-14
15	C=C1CC2(OC1=O)c1ccccc1CCc1ccccc12	-2	.	14	-2	-7	32*	39*	24
16	CCC(=O)Nc1ccc(C(=O)Cn2ncc(Cl)c(Cl)c2=O)cc1	1	-13	-21	2	-10	29*	22*	26
17	Cc1cc(Br)ccc1NC(=O)CNC(=O)Cn1ncc(Cl)c(Cl)c1=O	-2	.	3	-1	-12	47*	29*	53*
18	Cc1ccc(S(=O)(=O)N2CCCCC2)cc1NC(=O)Cn1ncc(Cl)c(Cl)c1=O	0	19	16	-4	-8	2	.	.
19	O=C(Cn1ncc(Cl)c(Cl)c1=O)Nc1ccc2c(c1)OCO2	-4	-4	-2	6	-4	37*	28*	66*
20	CO[C@H]1CN(C)C(=O)c2ccc(NC(=O)C3CCC3)cc2OC[C@H](C)N(Cc2ccncc2)C[C@H]1C	.	-4	.	.	.	.	.	.

Three compounds already listed, arranged by their value in ASAP1 GAP inh, descending:
no. | SMILES | MC4R barr agon | Yeast UUG start | ASAP1 GAP inh | ARFGAP1 inhibitor | CendR NRP1 mod | MC4R antag cAMP | MC4R cAMP antag
15 | C=C1CC2(OC1=O)c1ccccc1CCc1ccccc12 | -2 | . | 14 | -2 | -7 | 32* | 24
7 | O=C(Nc1ccc(F)cc1)c1nc(S(=O)(=O)Cc2ccccc2)ncc1Cl | -4 | -25 | 6 | -6 | 1 | 8 | .
5 | O=C(NCCc1csc(-c2ccccc2)n1)c1c(F)cccc1Cl | -2 | . | 3 | -13 | -5 | 31* | 0

Later entries.
#	Structure	MC4R barr agon	Yeast UUG start	ASAP1 GAP inh	ARFGAP1 inhibitor	CendR NRP1 mod	MC4R antag cAMP	U2OS cAMP counter	MC4R cAMP antag
21	CC(C)C#Cc1cnc2c(c1)C(=O)N([C@@H](C)CO)C[C@@H](C)[C@H](CN(C)S(=O)(=O)c1cn(C)cn1)O2	.	1	.	.	.	.	.	.
22	C/C(=N\NS(=O)(=O)c1ccc(C)cc1)c1cc2ccccc2oc1=O	3	-2	12	-2	-28	30*	4	11
23	C/C(=N/NS(=O)(=O)c1ccc(C)cc1)c1c(O)c2ccccc2oc1=O	0	0	5	8	-6	1	.	.
24	C[C@@H]1CN([C@H](C)CO)C(=O)c2cc(NS(=O)(=O)c3ccc(Cl)cc3)ccc2O[C@@H](C)CCCCO[C@@H]1CN(C)Cc1ccc(C(=O)O)cc1	.	3	.	.	.	.	.	.
25	Cc1ccc(S(=O)(=O)NCC(=O)OCc2nnc(-c3ccccc3)o2)cc1	-2	-10	0	-12	-2	30*	13	20
26	CCOC(=O)CSc1nnc(-c2ccc(NS(=O)(=O)c3ccc(C)cc3)cc2)o1	-1	-12	-9	0	6	38*	5	22
27	COC(=O)CSc1nnc(-c2ccc(S(=O)(=O)N3CCCCC3)cc2)o1	-2	3	-1	-10	-7	33*	13	44*
28	C[C@@H]1CN([C@@H](C)CO)C(=O)Cc2cc(NS(C)(=O)=O)ccc2O[C@@H]1CN(C)Cc1ccncc1	.	-17	.	.	.	.	.	.
29	CN(C)CCCN1C(=O)C(O)=C(C(=O)c2cc3ccccc3o2)C1c1ccccc1 (stereo unspecified)	-1	-5	-13	-6	-5	27	.	.
30	CN(C)CCCN1C(=O)C(O)=C(C(=O)c2cc3ccccc3o2)C1c1ccccn1 (stereo unspecified)	-1	-17	3	-7	-2	33*	9	26
31	O=C(COC(=O)c1cc(S(=O)(=O)N2CCOCC2)ccc1O)Nc1cc(S(=O)(=O)N2CCCC2)ccc1Cl	1	-9	-8	8	14	30*	4	8
32	Cc1cc(C(=O)OCC(=O)Nc2cc(S(=O)(=O)N3CCOCC3)ccc2Cl)c(C)o1	2	-19	-7	2	-10	4	.	.
33	CCN(CC)S(=O)(=O)c1ccc(NC(=O)COC(=O)c2cc(S(=O)(=O)Nc3ccc(OC)cc3)ccc2O)cc1	1	.	0	-16	-4	32*	1	4
34	CCN(CC)S(=O)(=O)c1ccc(NC(=O)COC(=O)c2ccc(Br)o2)cc1	0	-3	-2	7	12	3	.	.

Only Yeast UUG start, for two of the compounds above:
# | mol | Yeast UUG start
27 | COC(=O)CSc1nnc(-c2ccc(S(=O)(=O)N3CCCCC3)cc2)o1 | 3
28 | C[C@@H]1CN([C@@H](C)CO)C(=O)Cc2cc(NS(C)(=O)=O)ccc2O[C@@H]1CN(C)Cc1ccncc1 | -17
